Measured values taken from US7148338B2, “Nucleic acids encoding dipeptidyl peptidases” (The University of Sydney, priority 1999, dated 2006).

Chains of the proteins cited; added tags and fusions are not shown.
UniProt P27487, whole entry: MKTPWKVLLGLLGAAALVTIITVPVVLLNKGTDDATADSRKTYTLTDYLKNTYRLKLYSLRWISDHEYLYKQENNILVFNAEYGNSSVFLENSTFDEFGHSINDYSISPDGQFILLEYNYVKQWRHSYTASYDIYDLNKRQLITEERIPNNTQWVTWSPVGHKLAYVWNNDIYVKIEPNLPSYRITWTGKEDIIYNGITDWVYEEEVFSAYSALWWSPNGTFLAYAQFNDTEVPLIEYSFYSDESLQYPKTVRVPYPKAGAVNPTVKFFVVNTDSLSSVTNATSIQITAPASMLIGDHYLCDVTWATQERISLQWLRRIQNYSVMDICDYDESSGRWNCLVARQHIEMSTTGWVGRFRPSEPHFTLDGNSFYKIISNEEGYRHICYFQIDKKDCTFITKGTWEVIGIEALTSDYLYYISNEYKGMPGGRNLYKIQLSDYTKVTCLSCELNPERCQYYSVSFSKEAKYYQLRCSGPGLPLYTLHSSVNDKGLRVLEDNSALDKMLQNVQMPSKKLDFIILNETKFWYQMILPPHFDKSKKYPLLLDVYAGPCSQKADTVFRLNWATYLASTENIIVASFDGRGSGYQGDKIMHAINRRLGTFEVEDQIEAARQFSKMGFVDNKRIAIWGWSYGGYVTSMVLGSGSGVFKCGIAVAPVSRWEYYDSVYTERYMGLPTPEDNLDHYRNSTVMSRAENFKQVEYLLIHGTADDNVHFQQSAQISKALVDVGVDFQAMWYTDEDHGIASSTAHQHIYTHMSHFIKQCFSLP

Biological target: DPPIV (Homo sapiens, UniProt P27487)
Assay: Inhibition of peptidase activity of purified DPPIV, substrate H-Gly-Pro-pNA
Format: biochemical
Set-up: His tag; made in house; host or cells: transfected COS-7 cells; solubilised with 1% Triton X-100
Conditions: inhibitor 4 mM; 1 mM H-Gly-Pro-pNA, pH 7.4
Description: Cells (1×10^7) expressing each protein were sonicated in native buffer (50 mM sodium phosphate, 300 mM NaCl), then treated with 700 U DNAse for 20 min at room temperature. DPPIV is expressed at the cell surface, so 1% Triton X-100 was used to solubilize DPPIV/V5/His. Insoluble material was removed by centrifugation. The supernatant was incubated with 1 mL Talon® Metal Affinity Resin (Clontech) following the manufacturer's instructions for a batch/gravity flow procedure. The resin was washed with 50 mM sodium phosphate, containing 300 mM NaCl and 5 mM imidazole, and proteins were eluted using the same buffer containing 150 mM imidazole. Enzyme activity was used to monitor eluted fractions.
Enzyme assays were performed as described previously. Either clarified cell extract from 1×10^4 sonicated COS-7 cells or purified protein derived from 1×10^5 cells was incubated with substrate in 70 μL phosphate buffer, pH 7.4, for 30 min at 37° C., except where otherwise indicated. The specific DPPIV substrates, Gly-Pro-toluenesulfonate, H-Gly-Pro-p-nitroanilide (NA)/HCl (Sigma, St Louis, Mo., USA) and Gly-Pro-7-amino-4-trifluromethylcoumarin (Calbiochem, San Diego, Calif., USA) were tested. […]

## NCCc1ccc(S(=O)(=O)F)cc1 [AEBSF, 4-(2-aminoethyl)benzenesulfonylfluoride]
  Residual activity (% of control): 52 % of control
